Data published in ChEMBL document CHEMBL4342412, “How To Design Selective Ligands for Highly Conserved Binding Sites: A Case Study Using N-Myristoyltransferases as a Model System” (J Med Chem, 2020).

Protein sequences, listed by entry. Tags and fused reporters are not part of them.
UniProt P30419, whole entry L495M: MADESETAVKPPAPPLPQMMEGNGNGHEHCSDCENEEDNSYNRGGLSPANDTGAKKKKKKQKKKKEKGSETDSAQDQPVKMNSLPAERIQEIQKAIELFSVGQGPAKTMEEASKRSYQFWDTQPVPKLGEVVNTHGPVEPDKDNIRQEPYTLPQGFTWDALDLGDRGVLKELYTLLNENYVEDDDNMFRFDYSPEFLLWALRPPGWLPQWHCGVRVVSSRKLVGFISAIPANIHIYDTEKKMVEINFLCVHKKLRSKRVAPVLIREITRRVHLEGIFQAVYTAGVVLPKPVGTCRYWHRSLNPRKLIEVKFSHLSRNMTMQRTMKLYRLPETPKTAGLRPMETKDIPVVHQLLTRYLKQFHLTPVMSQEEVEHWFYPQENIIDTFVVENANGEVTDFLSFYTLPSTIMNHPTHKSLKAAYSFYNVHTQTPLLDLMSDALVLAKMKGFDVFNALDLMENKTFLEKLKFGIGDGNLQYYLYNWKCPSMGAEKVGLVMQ

Target: Glycylpeptide N-tetradecanoyltransferase 1 (Homo sapiens, UniProt P30419, L495M)
Format: ADME

SMILES | Ki
N[C@@H](CC(=O)N1C[C@H](CO)[C@@H](c2ccc(Cl)cc2)C1)Cc1ccc(Cl)cc1 | 550 nM
COc1cccc(Cc2noc(-c3ccccc3OC3CCNCC3)n2)c1 | 1600 nM
